The entries are a selection whose mix differs from that of the whole data set. Records with an inconclusive call do not appear. The source made the active and inactive calls. The call rests on the fitted dose curve; in most records, active means well fitted inhibition curve with a large enough effect; inconclusive means small, poorly fitted or top-dose-only effect, or another doubt; inactive means no such curve, though single readings can be large or run the other way.
Target: Glutaminase kidney isoform, mitochondrial (Homo sapiens) (UniProt O94925)
Assay: qHTS for Inhibitors of Glutaminase (GLS)
Settings: GLS enzymatic activity, qHTS titration
On the % scale 0 is the no-effect control and ±100 the full control effect.

Chains of the proteins cited; added tags and fusions are not shown.
UniProt O94925, whole entry: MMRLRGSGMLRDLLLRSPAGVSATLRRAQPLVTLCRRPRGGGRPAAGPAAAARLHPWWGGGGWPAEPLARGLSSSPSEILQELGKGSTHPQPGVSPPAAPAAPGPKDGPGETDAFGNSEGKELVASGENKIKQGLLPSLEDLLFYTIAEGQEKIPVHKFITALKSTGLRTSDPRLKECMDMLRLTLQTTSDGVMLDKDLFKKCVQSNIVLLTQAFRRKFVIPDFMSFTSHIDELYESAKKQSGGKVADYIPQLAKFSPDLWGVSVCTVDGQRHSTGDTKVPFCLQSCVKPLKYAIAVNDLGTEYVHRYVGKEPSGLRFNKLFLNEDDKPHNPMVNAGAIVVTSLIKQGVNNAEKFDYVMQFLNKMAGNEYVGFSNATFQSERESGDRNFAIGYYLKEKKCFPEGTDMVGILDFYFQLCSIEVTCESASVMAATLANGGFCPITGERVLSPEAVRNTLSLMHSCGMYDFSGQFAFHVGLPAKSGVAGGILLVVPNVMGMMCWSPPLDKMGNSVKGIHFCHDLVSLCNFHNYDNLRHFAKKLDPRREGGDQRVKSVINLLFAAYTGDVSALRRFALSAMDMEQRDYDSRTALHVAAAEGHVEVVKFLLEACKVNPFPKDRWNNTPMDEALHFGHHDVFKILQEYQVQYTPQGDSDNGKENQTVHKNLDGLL

Row | SMILES | activity change, negative = inhibition (at 45.5 µM (top of the series)) | activity change, negative = inhibition (at 99.4 µM (top of the series))
1 | CCC(=O)N(c1ccccc1)C1(COC)CCN(CCc2cccs2)CC1 | inactive: -1.45% | inactive: 8.41%
2 | CN(CCCl)CCCl | inactive: 6.33% | 
